According to ChEMBL document CHEMBL3872252, “New bithiazolyl hydrazones: Novel synthesis, characterization and antitubercular evaluation” (Bioorg Med Chem Lett, 2017):

Key:
Conditions in all cases: read-out: Selectivity Index
[1] = Selectivity index, ratio of GI50 for human MCF7 cells to MIC90 for Mycobacterium bovis BCG ATCC 35743 dormant stage; format: toxicity, cell-based
How it was run: (§1)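 Cytotoxicity was measured on human MCF-7, HCT116 and THP-1 cells by MTT assay, with paclitaxel as reference. GI50 is the concentration inhibiting 50% of cell growth. The selectivity index is GI50 for the given cell line divided by MIC90 for the given mycobacterial strain and stage.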

[2] = Selectivity index, ratio of GI50 for human HCT116 cells to MIC90 for Mycobacterium bovis BCG ATCC 35743 dormant stage; format: toxicity, cell-based, HCT-116; how it was run: as §1
[3] = Selectivity index, ratio of GI50 for human THP1 cells to MIC90 for Mycobacterium tuberculosis H37Ra ATCC 25177 dormant stage; format: toxicity, cell-based, THP-1; how it was run: as §1
[4] = Selectivity index, ratio of GI50 for human THP1 cells to MIC90 for Mycobacterium bovis BCG ATCC 35743 dormant stage; format: toxicity, cell-based, THP-1; how it was run: as §1

**Q.** For CO[C@H]1/C=C/O[C@@]2(C)Oc3c(C)c(O)c4c(O)c(c(/C=N/N5CCN(C)CC5)c(O)c4c3C2=O)NC(=O)/C(C)=C\C=C\[C@H](C)[C@H](O)[C@@H](C)[C@@H](O)[C@@H](C)[C@H](OC(C)=O)[C@@H]1C [RIFAMPIN], which selectivity ratio [1] is on record?
**A.** The selectivity ratio was 123.

**Q.** What about the selectivity ratio [2] of the same compound?
**A.** Its selectivity ratio is 123.

**Q.** And the selectivity ratio [3]?
**A.** The selectivity ratio was 133.

**Q.** And the selectivity ratio [4]?
**A.** The selectivity ratio was 123.
